## Apparent affinities of Ab-14 variants for a coronavirus HR2 peptide

Source: Li et al. 2023 (doi:10.1038/s41467-023-39022-2), MIT Lincoln Laboratory and A-Alpha Bio; data file from the FLAb repository.

The target is the same throughout: PDVDLGDISGINAS, from the HR2 region of SARS-CoV-2 spike.

Each scFv is VH, three GGGGS repeats, VL, as in the parent Ab-14, and differs from it in the CDRs of the light chain only.
VH: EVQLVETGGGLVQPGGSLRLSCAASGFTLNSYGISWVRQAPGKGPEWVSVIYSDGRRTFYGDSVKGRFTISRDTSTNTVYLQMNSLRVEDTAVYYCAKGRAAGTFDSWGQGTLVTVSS
VL: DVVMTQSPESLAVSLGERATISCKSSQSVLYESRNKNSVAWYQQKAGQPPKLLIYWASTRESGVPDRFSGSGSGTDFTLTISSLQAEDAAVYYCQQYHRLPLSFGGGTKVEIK

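The parent was found by panning a naive human phage display library on the peptide. Designed CDR sequences, proposed from the first random library and measured here. Several design methods are mixed in this list. Affinity was read by AlphaSeq, a pooled yeast mating assay with surface-displayed partners. Pairs that bind mate more often; barcode pairs of the diploids are counted by sequencing. A regression on co-assayed BCL2-family reference pairs converts the normalised counts of each replicate to an apparent Kd. There are six technical replicates.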

Each variant is given by its three light chain CDRs, as the data file delimits them; those of the parent are KSSQSVLYESRNKNSVA, WASTRES, QQYHRLPLS.
Variants here have more than six changes.
Values are apparent Kd, the geometric mean of the replicates that gave a signal; lower means stronger binding.
Where no diploid with the target was found in any replicate, the entry reads "nd": below detection, most likely a poor binder, though not proof of it.
A sequence measured in both rounds can read differently, since the two assays cover different ranges.
Background: pairings of all light chain designs with three empty control strains gave a value in 4% of cases (median 430 nM, 5th percentile 38 nM). Values in that range, when seen in few replicates, are hard to tell from nonspecific mating.
The parent sequence was in this pool as ten entries: three were never detected, three once, and four in most replicates, with averages from 2.2 nM to 240 nM.
The authors averaged sequences with at least three values out of six and counted those with two or fewer as poor binders.

| CDR-L1 | CDR-L2 | CDR-L3 | Kd | detected |
|---|---|---|---|---|
| RMDMALTHAHNNVNSIA | EGAMVAD | QQYDRLPLW | 61 nM | 6/6 |
| MITAMLRGVGRDKNSVA | NAQTREN | QHYHRLPLS | nd | 0/6 |
| TISQMTSWMSNKKANVA | EVSTREP | QQYDRLPLS | 3.1 nM | 6/6 |
| RLRFQQLGMSYDANHIA | GATNRIK | QQYGRLPLT | 14 nM | 6/6 |
| KIGGVTNGVSFSKNSVA | EQSTRED | QQYDRLPLS | 7.0 nM | 6/6 |
| MLSMVTEGMARKHDSVA | DNSTRES | QQYDRLPLS | 230 nM | 5/6 |
| KAPQSMWYESRNQNSVA | SASTRSQ | QQYHRLPLS | 1.4 nM | 6/6 |
| MFSQLFMYGSRNYNSVA | QASTRET | QQYHRLPLI | 68 nM | 5/6 |
| KIGMTLNTLMHQKNNVA | DLVMREQ | QQYHRLPLS | 11 nM | 6/6 |
| KVSQLQDYESRNKNSVA | NASQREQ | QQYHRLPLS | 1.7 nM | 6/6 |
| IVSQLMVWGWHAKNSIA | EAQTRLN | QQYDRLPLF | 14 nM | 6/6 |
| IVSQLMLWGYHAKNSIA | EAEKRLN | QQYERLPLF | 110 nM | 1/6 |
| KLSQSVMFMSGVYNSVA | QMSTRAE | QQYNRLPLS | 970 pM | 6/6 |
| KLMNSLDAFKQWEDNVA | EVEHKVA | QQYYHLPLT | nd | 0/6 |
| TLGQFTMQLSVNKNSVA | DANTSGD | QQYDRLPLS | 13 nM | 6/6 |
| KIRVQQYMQSEMESNIA | GESVRHQ | QQYFHLPLT | 3.8 nM | 6/6 |
| KLWMSVNGESRNKNAVA | SASTREQ | QQYHRLPLS | 810 pM | 6/6 |
| HFAQTRQEDIQDKNSVA | EGSVVIS | QQYSKLPLS | 270 nM | 1/6 |
| HISNMQAYAYSAKNSVA | DNETKLN | QQYIRLPLT | 19 nM | 6/6 |
| VLPAHELMLESQIHSIA | NETKRME | QQYSRLPLV | 4.1 nM | 6/6 |
| MLSQMWGTGQKVKNSVA | QASMRFN | QQYHRLPLI | 17 nM | 1/6 |
| SLYEMSYELSGKTHSVA | DNSTRGD | QQYFRLPLQ | 45 nM | 6/6 |
| IVSQLMLWGYHAKNSIA | EAQTRLN | QQYDRLPLD | nd | 0/6 |
| ALSQSMDMTSRNKNSVA | DLTMREN | QQYHRLPLS | 2.3 nM | 6/6 |
| KLYYSDGGLQRNKNSVA | EASTREM | QQYHRLPLS | 560 pM | 6/6 |
| KLGGVTEYEMMNNNSVA | QMTTRES | QQYHRLPLS | 12 nM | 6/6 |
| QIYQAMHTLSQMKDNVA | DVQERGD | QQYFRLPLS | 780 pM | 6/6 |
| YLFNQRSYGDSDQRNIA | NGRMRED | QQYARLPLT | 910 pM | 6/6 |
| ILYDSVLTLGRNKNSVA | DNSTRES | QQYDRLPLS | nd | 0/6 |
| SMEWEEWNGQSVKHNIA | ADTKVLE | QQYFRLPFT | 230 pM | 1/6 |
| KISQMYRYEQQNHSSIA | EASTREN | QSYHRLPLS | 8.9 nM | 6/6 |
| HISQMVMYGSCNYNNVA | QVSTREE | QQYHRLPLS | 3.0 nM | 6/6 |
| HFAKQLQSLYNSKQNVA | NASTVMV | QHYNRLPLS | 15 nM | 6/6 |
| FLSQSVLYEERLDNSVA | NASQRCS | QQYHRLPLS | 4.6 nM | 6/6 |
| TISQVLNTLTKTGNNVA | DLAEREQ | QQYFRLPLS | 18 nM | 6/6 |
| IVSQLMLWGYHAKNSIA | EAETRGN | QQYDRLPLF | nd | 0/6 |
| FMQMDNDRMNDAAKNIA | DVDMRET | QQYARLPFM | 6.2 nM | 5/6 |
| KLIQSVAMSSRTKDSIA | DNSTRES | QQYHRLPLS | 350 nM | 4/6 |
| NVGQLMDGESRNRNSVA | HQSTRED | QHYHRLPLS | 9.3 nM | 6/6 |
| MISQLYNMGQFAINSVA | QASTRME | QQYHRLPLM | 760 pM | 6/6 |
| HMSMLTLGGMRARNSVA | QMTTREN | QQYDRLPLV | 4.7 nM | 6/6 |
| KQQFSSGGESRNKNSVA | EASTRCS | QQYHRLPLS | 1.2 nM | 6/6 |
| IFSQSVLMGNLTKNSVA | QASTRFK | QQYHRLPLI | nd | 0/6 |
| MISQLYNMGQFAINSVA | QAVTRNE | QQYDRLPLM | 27 nM | 2/6 |
| KIPQSMLGEWRNFNSVA | NASQRES | QQYHRLPLS | 1.8 nM | 6/6 |
| WLNWEGQGDDRGMSNIA | DSDLRMA | QQYHRLPLS | 1.7 nM | 6/6 |
| QLGKNQSGDTLSQNAIA | HAALLVD | QQYFQLPLL | 22 nM | 6/6 |
| KVSQMVPYEERNKNNVA | NASTRMS | QQYHRLPLS | 960 pM | 6/6 |
| TISQVMNTMTRHGNNVA | DLEERED | QQYFRLPLS | 11 nM | 6/6 |
| IIAENSDDLTEKQNSIA | ETSQVTQ | QQYHLLPLA | nd | 0/6 |
| KYPQSELYESRNQNSVA | EASQREE | QQYHRLPLS | 1.3 nM | 6/6 |
| ILEENSDDITEQGNSIA | ETNMVRS | QQYHRLPLA | 180 nM | 4/6 |
| TIGQMLMQGIRNRSNVA | EVSQRLN | QQYDRLPLI | 15 nM | 6/6 |
| KLSQWWLYESRMKNNVA | NASTRED | QQYHRLPLS | 3.3 nM | 6/6 |
| KVEQSVMLESRWKNSVA | NASTRCS | QQYHRLPLS | 5.3 nM | 6/6 |
| KFSQMANTFSVSMNAVA | EMSTREN | QQYNRLPLS | 2.1 nM | 6/6 |
| NIRGVEFESAMMGNSVA | GVDLREA | QQYFRLPLH | 3.1 nM | 6/6 |
| KLEGSVEYESRWKNSVA | HASTREV | QQYHRLPLS | 8.4 nM | 6/6 |
| KIEISNSWSLRGTRAIA | QASTRAH | QQYHRLPLT | 43 nM | 6/6 |
| IVSQVMSWGIHAKNSIA | EAQTRLN | QQYDRLPLF | 150 nM | 6/6 |
| AFSESAFYGQRDENAIA | GADVVAK | QQYWRLPLT | 2.2 nM | 6/6 |
| MFALYQDSMGDAKNSIA | DRNTKAH | QQYSKLPLV | 2.0 nM | 6/6 |
| MISQLMNMGQFAINSVA | QASIRCN | QQYDRLPLA | 38 nM | 3/6 |
| KVDISPHKQGMHKHGVA | DHDMRVS | QQYDRLPLA | 36 nM | 6/6 |
| KLMQSDLYESRNQNNVA | DASTRMS | QQYHRLPLS | 750 pM | 6/6 |
| NSSGPMMFESRNRNSVA | HASTREE | QQYERLPLS | 3.0 nM | 6/6 |
| HMSALTLQGMRHRNSVA | QMTTREN | QQYDRLPLS | 410 nM | 5/6 |
| KLSQSNGYEERNKNNVA | SASQREM | QQYHRLPLS | 340 pM | 6/6 |

The last 5 entries again:

{"CDR-L1": "KVDISPHKQGMHKHGVA", "CDR-L2": "DHDMRVS", "CDR-L3": "QQYDRLPLA", "Kd": "36 nM", "detected": "6/6"}
{"CDR-L1": "KLMQSDLYESRNQNNVA", "CDR-L2": "DASTRMS", "CDR-L3": "QQYHRLPLS", "Kd": "750 pM", "detected": "6/6"}
{"CDR-L1": "NSSGPMMFESRNRNSVA", "CDR-L2": "HASTREE", "CDR-L3": "QQYERLPLS", "Kd": "3.0 nM", "detected": "6/6"}
{"CDR-L1": "HMSALTLQGMRHRNSVA", "CDR-L2": "QMTTREN", "CDR-L3": "QQYDRLPLS", "Kd": "410 nM", "detected": "5/6"}
{"CDR-L1": "KLSQSNGYEERNKNNVA", "CDR-L2": "SASQREM", "CDR-L3": "QQYHRLPLS", "Kd": "340 pM", "detected": "6/6"}